Results on six molecules are retold here after the supplement of paper PMC10933113.

SMILES strings stand for the structures. Where a name gives a salt, the structure may show the parent alone. ± gives the uncertainty stated by the source. The entries are a selection whose mix differs from that of the whole data set.

The test has as its system THP-1. The test is described as follows: CD86 surface expression induction over DMSO control (% over DMSO); higher = stronger dendritic cell activation. The note with it: exposure time: 24 h. How it is done:
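hCLAT-like CD54 and CD86 surface expression on THP1 cells after 24 h exposure at a single concentration (highest non-cytotoxic concentration, or 100-200 µM if not cytotoxic). Flow cytometry (iQue) was run on 5,000 live cells.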
Regarding `CCOC(=O)N1CCC(=C2c3ccc(Cl)cc3CCc3cccnc32)CC1` [Loratadine] (100 µM), the “CD86 surface expression induction” value stood at 18.2 ± 33. For the molecule `NNc1nncc2ccccc12` [Hydralazine hydrochloride] (10 µM), the “CD86 surface expression induction” value worked out at 0.65 ± 8.2. The result for `CN1CCCN=C1/C=C/c1cccs1` [Pyrantel tartrate] (100 µM) reads -4.75 ± 3.9; that for `Oc1ccc(O)cc1` [Hydroquinone] (10 µM), 4.97 ± 0.63. For `C=CC(=O)OCCOc1ccccc1` [2-Phenoxyethyl acrylate] (100 µM) the value was 0.03 ± 5.7. For `Cn1c(=O)c2c(ncn2C)n(C)c1=O` [Caffeine] (100 µM) the value was 0.53 ± 3.9.
